# Data published in PubChem BioAssay (NCI).
# Only a part is listed here, and it is no random draw.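 48-hour exposure, single concentration, 96-well plates; percent growth endpoint where 0 means no net growth. Active: below 10.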 Activity calls are given as the source filed them.
# System: MDA-MB-468 breast
# Assay: NCI-60 one-dose screen, 48 h (100 = growth as untreated, 0 = no growth, -100 = all killed)
# Settings: 10 µM unless noted
row,SMILES,growth
1,NC1=NCC(Br)CS1 (stereo not given),inactive: 88.5%
2,O=[As](O)(c1ccc(O)cc1)c1ccccc1O,inactive: 92.9%
3,CC(=O)NC(C)C(=O)N(CC(C)Cl)CC(C)Cl (stereo not given),inactive: 98.3%
4,Cc1cc([N+](=O)[O-])cc([N+](=O)[O-])c1O,inactive: 98.1%
5,O=S1(=O)CC(Sc2ccccc2)[C@@H](Cl)C1 (stereo not given in full),inactive: 103%
6,CCCCCCCCCCNP(=S)(Cl)Cl,inactive: 109%
7,O=C(O)COc1ccc([As](=O)(O)O)cc1[N+](=O)[O-],inactive: 89.5%
8,O=[As](O)(c1cccc(O)c1)c1cccc(O)c1,inactive: 97.7%
9,COP(OC)c1ccc(C)cc1,inactive: 121%
10,COP(=O)(OC)N1CC1c1ccccc1 (stereo not given),inactive: 104%
11,COC(=O)N(C)[N+](=O)[O-],inactive: 102%
12,CCN(CC)C(=O)Oc1ccc(/C=N/NC(N)=S)nc1,inactive: 86.5%
13,Cc1ccccc1C(=O)N(CCCl)CCCl,inactive: 92.1%
14,O=[As]1(O)c2ccccc2-c2ccccc21,inactive: 103%
15,CCN(CCCl)/N=N/c1nc2nc[nH]c(=O)c2[nH]1,inactive: 109%
16,Nc1ccc([As](=O)(O)c2ccc([N+](=O)[O-])cc2)cc1,inactive: 101%
17,Cn1c(=O)c2[nH]c(N(CCCl)CCCl)nc2n(C)c1=O,inactive: 106%
18,C/C(N)=N\P(=O)(OCc1ccccc1)OCc1ccccc1,inactive: 95.9%
19,CN(CCCl)/N=N/c1nc2c([nH]1)c(=O)n(C)c(=O)n2C,inactive: 114%
20,S=P(Cl)(N1CCCCCC1)N1CC1 (stereo not given),inactive: 88.7%
